Test results taken from BindingDB's records for 31675511.

Protein sequences, listed by entry. Tags and fused reporters are not part of them. Residues count along the entry.
UniProt P22303, 32-614 limits assumed: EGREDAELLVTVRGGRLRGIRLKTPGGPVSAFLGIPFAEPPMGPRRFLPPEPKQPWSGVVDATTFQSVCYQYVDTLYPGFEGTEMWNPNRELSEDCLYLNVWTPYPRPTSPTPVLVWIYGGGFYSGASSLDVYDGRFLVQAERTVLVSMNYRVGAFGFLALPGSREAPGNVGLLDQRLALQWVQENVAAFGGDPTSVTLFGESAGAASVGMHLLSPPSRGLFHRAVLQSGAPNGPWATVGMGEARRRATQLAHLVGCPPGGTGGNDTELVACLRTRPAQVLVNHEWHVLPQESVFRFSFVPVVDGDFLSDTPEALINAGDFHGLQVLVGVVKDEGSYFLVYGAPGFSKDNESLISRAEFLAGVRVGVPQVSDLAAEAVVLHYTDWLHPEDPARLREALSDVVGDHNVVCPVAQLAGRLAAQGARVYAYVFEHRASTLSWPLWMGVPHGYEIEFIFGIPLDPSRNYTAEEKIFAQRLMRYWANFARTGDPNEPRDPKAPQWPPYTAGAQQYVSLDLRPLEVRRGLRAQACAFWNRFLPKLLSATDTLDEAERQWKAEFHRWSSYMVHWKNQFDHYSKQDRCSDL

Biological target: Acetylcholinesterase (Homo sapiens, UniProt P22303)
Test: Reactivation of POX-inhibited human recombinant AChE assessed as dissociation rate constant using ATC as substrate incubated for 60 mins followed by substrate addition by Ellman's method based spectrophotometry

Structure (SMILES) | Kd
Cc1cc(=O)n(C)c(=O)n1CCCCn1cnc(C(=O)NO)n1 | 60.6 mM
Cc1cc(=O)n(C)c(=O)n1CCCCCn1cnc(C(=O)NO)n1 | 5.5 mM
